## Permeability data for macrocyclic peptides

Data: CycPeptMPDB; original report Townsend et al. 2020, doi:10.26434/chemrxiv.13335941.v1.

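The data file gives no further conditions (lipid, pH, time, direction or concentration), and values from different papers need not be comparable. The list need not hold all peptides of the study. Entries at the database's floor value (log10 P of -10) are not listed.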

PAMPA measures passive passage through an artificial lipid membrane. P is given in units of 10^-6 cm/s (from log10 values with two decimals); larger means faster passage.

compound	PAMPA (10^-6 cm/s)
CCCN1CC(=O)N(C)[C@@H](CC(C)C)C(=O)N[C@H](CC(C)C)C(=O)N2CCC[C@@H]2C(=O)N(C)[C@H](CC(C)C)C(=O)N[C@@H](Cc2ccccc2)C1=O	6.9
CC(C)C[C@@H]1NC(=O)[C@H](C)N(C)C(=O)[C@H]2CCCN2C(=O)[C@H](Cc2ccccc2)NC(=O)[C@@H](CC(C)C)N(C)C(=O)[C@H]2CCCN2C(=O)[C@H](CC(C)C)N(C)C1=O	5.4
CCCN1CC(=O)N(Cc2ccccc2)CC(=O)N(C)[C@H](CC(C)C)C(=O)N2CCC[C@@H]2C(=O)N[C@@H](CC(C)C)C(=O)N[C@@H](Cc2ccccc2)C(=O)N2CCC[C@H]2C1=O	0.052
CC(C)C[C@@H]1NC(=O)[C@H]2CCCN2C(=O)CN(Cc2ccccc2)C(=O)[C@H](CC(C)C)NC(=O)C[C@H](Cc2ccccc2)NC(=O)[C@H]2CCCN2C(=O)[C@H](Cc2ccccc2)NC1=O	0.54
CC(C)C[C@@H]1C(=O)N[C@@H](Cc2ccccc2)C(=O)N2CCC[C@@H]2C(=O)N[C@@H](Cc2ccccc2)CC(=O)N(C)[C@@H](CC(C)C)C(=O)N(Cc2ccccc2)CC(=O)N2CCC[C@H]2C(=O)N1C	3.7
CC(C)C[C@@H]1NC(=O)[C@H](C)N(C)C(=O)[C@H](Cc2ccccc2)NC(=O)CN(Cc2ccccc2)C(=O)[C@H]2CCCN2C(=O)[C@H](CC(C)C)N(C)C1=O	4.9
CC(C)C[C@@H]1C(=O)N(C)[C@@H](CC(C)C)C(=O)N2CCC[C@@H]2C(=O)N(C)[C@H](CC(C)C)C(=O)N[C@@H](Cc2ccccc2)C(=O)N[C@@H](C)C(=O)N1C	9.3
CC(C)C[C@@H]1C(=O)N(Cc2ccccc2)CC(=O)N2CCC[C@@H]2C(=O)N(Cc2ccccc2)CC(=O)N[C@@H](Cc2ccccc2)C(=O)N2CCC[C@@H]2C(=O)N(C)[C@H](C)C(=O)N1C	0.14
CC(C)C[C@@H]1C(=O)N[C@@H](Cc2ccccc2)C(=O)N2CCC[C@H]2C(=O)N(C)[C@H](C)C(=O)N[C@H](CC(C)C)C(=O)N[C@@H](Cc2ccccc2)CC(=O)N2CCC[C@H]2C(=O)N1C	1.1
CC(C)C[C@@H]1C(=O)N[C@@H](Cc2ccccc2)C(=O)N[C@@H](Cc2ccccc2)CC(=O)N(C)[C@@H](CC(C)C)C(=O)N(C)[C@@H](CC(C)C)C(=O)N2CCC[C@@H]2C(=O)N1C	6.2
CC(C)C[C@H]1C(=O)N(Cc2ccccc2)CC(=O)N2CCC[C@@H]2C(=O)N(C)[C@@H](CC(C)C)C(=O)N[C@@H](Cc2ccccc2)C(=O)N2CCC[C@@H]2C(=O)N(C)[C@H](C)C(=O)N1C	3.8
CC(C)C[C@@H]1C(=O)N[C@H](CC(C)C)C(=O)N2CCC[C@@H]2C(=O)N(C)[C@@H](CC(C)C)C(=O)N[C@@H](Cc2ccccc2)C(=O)N2CCC[C@H]2C(=O)N(C)[C@H](C)C(=O)N1C	7.8
CC(C)C[C@@H]1C(=O)N[C@@H](Cc2ccccc2)C(=O)N2CCC[C@H]2C(=O)N[C@@H](C)C(=O)N(Cc2ccccc2)CC(=O)N[C@@H](Cc2ccccc2)CC(=O)N2CCC[C@H]2C(=O)N1C	0.46
CC(C)C[C@H]1NC(=O)[C@H](C)N(C)C(=O)[C@H](Cc2ccccc2)NC(=O)[C@H](CC(C)C)N(C)C(=O)[C@H]2CCCN2C(=O)[C@@H](CC(C)C)NC1=O	0.66
CC(C)C[C@H]1C(=O)N[C@@H](Cc2ccccc2)CC(=O)N2CCC[C@H]2C(=O)N(C)[C@@H](CC(C)C)C(=O)N[C@@H](Cc2ccccc2)C(=O)N2CCC[C@H]2C(=O)N[C@H](C)C(=O)N1C	3.2
CC(C)C[C@@H]1NC(=O)C[C@H](Cc2ccccc2)NC(=O)[C@@H]2CCCN2C(=O)[C@H](Cc2ccccc2)NC(=O)[C@@H](CC(C)C)NC(=O)[C@@H]2CCCN2C(=O)CN(Cc2ccccc2)C1=O	2.1
CC(C)C[C@@H]1NC(=O)[C@@H](C)N(C)C(=O)[C@H]2CCCN2C(=O)[C@H](Cc2ccccc2)NC(=O)[C@@H](CC(C)C)NC(=O)[C@@H]2CCCN2C(=O)[C@H](CC(C)C)N(C)C1=O	0.87
CCCN1CC(=O)N[C@H](CC(C)C)C(=O)N(C)[C@@H](CC(C)C)C(=O)N2CCC[C@@H]2C(=O)N(Cc2ccccc2)CC(=O)N[C@@H](Cc2ccccc2)C(=O)N2CCC[C@@H]2C1=O	2.1
CC(C)C[C@H]1NC(=O)[C@@H]2CCCN2C(=O)CN(Cc2ccccc2)C(=O)[C@@H](CC(C)C)NC(=O)C[C@H](Cc2ccccc2)NC(=O)[C@@H]2CCCN2C(=O)[C@H](Cc2ccccc2)NC1=O	0.79

Excerpt, the final 2 entries:

compound	PAMPA (10^-6 cm/s)
CCCN1CC(=O)N[C@H](CC(C)C)C(=O)N(C)[C@@H](CC(C)C)C(=O)N2CCC[C@@H]2C(=O)N(Cc2ccccc2)CC(=O)N[C@@H](Cc2ccccc2)C(=O)N2CCC[C@@H]2C1=O	2.1
CC(C)C[C@H]1NC(=O)[C@@H]2CCCN2C(=O)CN(Cc2ccccc2)C(=O)[C@@H](CC(C)C)NC(=O)C[C@H](Cc2ccccc2)NC(=O)[C@@H]2CCCN2C(=O)[C@H](Cc2ccccc2)NC1=O	0.79